{"source": "paper PMC3583384", "about": "(Journal of medicinal chemistry, 2012)", "origin": "cited, not measured here", "key": {"iron overloaded primates": {"test_system": "iron overloaded primates", "details": "primates po 150 µmol/kg; cited from earlier work"}, "[1]": {"test_system": "non-iron-overloaded bile duct-cannulated rats", "details": "rats po 300 µmol/kg, monosodium salt; cited from earlier work"}}}
{"smiles": "C[C@]1(C(=O)[O-])CSC(c2ccc(O)cc2O)=N1.[Na+]", "note": "[Compound 3, (S)-2-(2,4-dihydroxyphenyl)-4,5-dihydro-4-methyl-4-thiazolecarboxylic acid]", "values": [{"measurement": "relative percentages of the iron excreted in the feces and urine [feces/urine]", "setting": "iron overloaded primates", "value": "88/12"}, {"measurement": "relative percentages of the iron excreted in the bile and urine [bile/urine]", "setting": "[1]", "value": "100/0"}]}
